Reference: PubChem BioAssay AID1565 (Sanford-Burnham Center for Chemical Genomics, 2009)
This is a selection; strong and weak results do not stand in their true shares. Activity calls are given as the source filed them. No stated cut-off is given here; in the data, active means inhibition above about 60%; inactive means the rest.

Chains of the proteins cited; added tags and fusions are not shown. Lines headed by an entry give the natural chain unless they say otherwise; changes in a name come on top.
UniProt Q8TCT1: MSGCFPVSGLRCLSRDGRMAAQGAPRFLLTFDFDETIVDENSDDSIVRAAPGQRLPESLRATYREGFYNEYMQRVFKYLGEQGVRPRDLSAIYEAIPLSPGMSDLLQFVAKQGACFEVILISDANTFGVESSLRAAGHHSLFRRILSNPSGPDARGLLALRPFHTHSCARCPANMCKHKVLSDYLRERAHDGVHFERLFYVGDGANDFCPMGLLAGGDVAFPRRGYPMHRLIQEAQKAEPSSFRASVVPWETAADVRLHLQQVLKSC

The compounds below were run against Phosphoethanolamine/phosphocholine phosphatase (Homo sapiens) (UniProt Q8TCT1) (assay: PubChem AID 1565). Details: recombinant PHOSPHO1, absorbance phosphatase assay; at 13.3 µM; stronger effect = higher value.

With Cc1ccc(NP(=O)(Oc2ccccc2F)Oc2ccccc2F)nc1 as the compound, how does the inhibition read?
Its inhibition is inactive: 50.9%.

How did the inhibition turn out when O=C(O)c1ccccc1[As](=O)(O)O was run?
The inhibition was inactive: 25.4%.

With CC(=O)Nc1ccc([As](=O)(O)O)cc1 as the compound, how does the inhibition read?
The inhibition was inactive: 50.8%.

For O=P(Nc1nc2ccc(Cl)cc2s1)(c1ccccc1)c1ccccc1, which inhibition is on record?
Its inhibition is inactive: -18.3%.

CCN(N=Nc1nonc1N)c1nonc1N was tested. Which inhibition did it give?
The inhibition was inactive: 9.1%.

Nc1cccc2ccc([As](=O)(O)O)cc12 was tested. Which inhibition did it give?
Its inhibition is inactive: -8.5%.

How did the inhibition turn out when O=[N+]([O-])c1cc([N+](=O)[O-])c(CCN2CCOCC2)c([N+](=O)[O-])c1 was run?
Its inhibition is inactive: 32.6%.

Which inhibition does the source give for COc1ccccc1OP(=O)(Nc1ccc(C)cn1)Oc1ccccc1OC here?
Its inhibition is inactive: 40.7%.

For Cc1ccc(OP(=O)(Nc2nccs2)Oc2ccc(C)cc2)cc1, which inhibition is on record?
Its inhibition is inactive: 45.9%.

Which inhibition does the source give for Clc1ccc(Cl)c(NC2=NCC(CBr)S2)c1 (stereo not given) here?
Its inhibition is inactive: 17.5%.

CN1CCCC(OC(=O)C(c2ccccc2)c2ccccc2)C1 (stereo not given) was tested. Which inhibition did it give?
The inhibition was inactive: -6.8%.

Which inhibition does the source give for NC(=O)c1cc([N+](=O)[O-])cc([N+](=O)[O-])c1N here?
Its inhibition is inactive: 40.5%.

With Cc1ccc(N/C(=N/P(=O)(N2CCOCC2)N2CCOCC2)N2CCOCC2)cc1 as the compound, how does the inhibition read?
Its inhibition is inactive: 16.1%.

How did the inhibition turn out when CC(C)CC(=O)NC(Sc1ccc(Cl)cc1)C(Cl)(Cl)Cl (stereo not given) was run?
Its inhibition is inactive: 35.8%.

Nc1cc(N)c2nonc2c1[N+](=O)[O-] was tested. Which inhibition did it give?
The inhibition was inactive: 12.9%.

With Oc1ccccc1CNc1ccccn1 as the compound, how does the inhibition read?
Its inhibition is inactive: 11.3%.

Cc1c2non([O-])c-2c(C)[n+](=O)[n+]1[O-] was tested. Which inhibition did it give?
Its inhibition is inactive: 4.6%.

Which inhibition does the source give for O=C(NC(Sc1ccncn1)C(Cl)(Cl)Cl)c1ccccc1 (stereo not given) here?
Its inhibition is inactive: -14.8%.

With CC(=O)N1C2C3N(C(C)=O)C1C1N(C(C)=O)C(C(N1C(C)=O)N3C(C)=O)N2C(C)=O as the compound, how does the inhibition read?
The inhibition was inactive: 41.7%.

Which inhibition does the source give for O=[N+]([O-])c1cccc2n[nH]nc12 here?
The inhibition was inactive: 4.2%.

Which inhibition does the source give for Cc1ccc(NP(=O)(Oc2ccccc2)Oc2ccccc2)nc1 here?
Its inhibition is inactive: 31.9%.

O=[N+]([O-])c1cc([N+](=O)[O-])c(CCNc2ccccc2)c([N+](=O)[O-])c1 was tested. Which inhibition did it give?
The inhibition was inactive: -10%.

Which inhibition does the source give for CCc1nc2c(n1)c1c(non1O)c1c2no[n+]1[O-] here?
Its inhibition is inactive: 11.1%.

Which inhibition does the source give for COc1ccc(C2=NCC(CBr)S2)cc1 (stereo not given) here?
The inhibition was inactive: 24.1%.

Which inhibition does the source give for CC(C)=N/N=C(\N)N[N+](=O)[O-] here?
The inhibition was inactive: 20.3%.

Which inhibition does the source give for CN(C)C(=O)OCCc1n(C)cc[n+]1C here?
The inhibition was inactive: -15.9%.

With CC1CCN(C(=O)Oc2c(Cl)cc(Cl)c3cccnc23)CC1 as the compound, how does the inhibition read?
The inhibition was inactive: -9.3%.

How did the inhibition turn out when Nc1ccc([As](=O)(O)c2ccc(N)cc2)cc1 was run?
The inhibition was inactive: 29%.

With C[N+]1=C2C=CC=CC=C2SC12C([N+](=O)[O-])=CC([N+](=O)[O-])=C[C-]2[N+](=O)[O-] (stereo not given) as the compound, how does the inhibition read?
Its inhibition is inactive: -92.9%.

Which inhibition does the source give for CCN(/C(=N/P(=O)(N1CCOCC1)N1CCOCC1)N1CCOCC1)c1ccc(OC)cc1 here?
Its inhibition is inactive: -11.6%.

With O=C(Nc1cc([As](=O)(O)O)ccc1O)c1ccccc1 as the compound, how does the inhibition read?
Its inhibition is inactive: 29.8%.

Which inhibition does the source give for O=[N+]([O-])c1cccc(NC2=NCC(CBr)S2)c1 (stereo not given) here?
Its inhibition is inactive: -69.4%.

With O=C(O)CNc1ccc([As](=O)(O)O)cc1 as the compound, how does the inhibition read?
The inhibition was inactive: 32.7%.

Which inhibition does the source give for CC(C)(C)C(=O)NC(Sc1ccncn1)C(Cl)(Cl)Cl (stereo not given) here?
Its inhibition is inactive: -151%.

With O=[N+]([O-])c1ncn(CCn2ncnc2[N+](=O)[O-])n1 as the compound, how does the inhibition read?
The inhibition was inactive: 8%.
